Drawing on patent US4599325A, “Substituted tyrosyl alanine dipeptide amides” (G. D. Searle & Co., priority 1985, dated 1986), this text covers IC50 for one substance.

The assay deals with opiate receptors. As to the kind of experiment: Opiate binding assay (displacement of 3H-Naloxone). The note with it: Table 1, rat brain membranes. As to the method: The test compounds were evaluated for their ability to displace the binding of ^3 H-Naloxone to opiate receptors isolate from rat brain. Male rats [COBS CD(SD)BR] obtained from Charles River Laboratories (Portage, MI) were sacrificed by cervical dislocation. A purified homogenate of receptor membranes was prepared from the brains according to the method described by Chang and Cuatrecasas. (K.-J. Chang and P. Cuatrecases. Multiple Opiate Receptors: Enkephalins And Morphine Bind To Receptors Of Different Specificity. J. Biol. Chem. 254, 2610-2618 (1979).) The brains were homogenized in 10 volumes of 0.32M sucrose and centrifuged twice at 6,000×g for 15 minutes. Following centrifugation of the supernatants at 40,000×g for 30 minutes, the pellets were allowed to swell, then centrifuged at 6,000 and 40,000×g. This process was repeated. […]
The binding of the test compounds to the receptor membrane preparation was measured using a modification of the method of Pert and Snyder. […]
Samples were incubated at 25° C. for 60 min., cooled on ice 5 min. and subsequently filtered over Whatman GF/C glass fiber filters with 2.4 ml washes of cold buffer. […] After solubilization, the pH was adjusted with 0.1 ml of glacial acetic acid, 10 ml of PCS was added and the samples were counted in a Nuclear Chicago Mark II liquid scintillation counter. […]
For orientation: Loss of bound radioactivity is the signal in a displacement assay; it reports binding, not function.

The IC50 is the concentration that inhibits the measured activity by half. A lower IC50 goes with inhibition by little substance. “2,6-dimethyltyrosyl-N-(4-phenylbutyl)-D-alaninamide, hydrochloride [Example 43]”: the IC50 worked out at 130 nM.
